Reference: patent EP4834897A1, “COMPOUNDS WITH TWO AZAHETEROCYCLES SUBSTITUTED ISOINDOLINONE SKELETON AND USES THEREOF” (dated 2026)

By UniProt entry, the sequences of proteins in these tests, tags left out.
UniProt P30291, whole entry: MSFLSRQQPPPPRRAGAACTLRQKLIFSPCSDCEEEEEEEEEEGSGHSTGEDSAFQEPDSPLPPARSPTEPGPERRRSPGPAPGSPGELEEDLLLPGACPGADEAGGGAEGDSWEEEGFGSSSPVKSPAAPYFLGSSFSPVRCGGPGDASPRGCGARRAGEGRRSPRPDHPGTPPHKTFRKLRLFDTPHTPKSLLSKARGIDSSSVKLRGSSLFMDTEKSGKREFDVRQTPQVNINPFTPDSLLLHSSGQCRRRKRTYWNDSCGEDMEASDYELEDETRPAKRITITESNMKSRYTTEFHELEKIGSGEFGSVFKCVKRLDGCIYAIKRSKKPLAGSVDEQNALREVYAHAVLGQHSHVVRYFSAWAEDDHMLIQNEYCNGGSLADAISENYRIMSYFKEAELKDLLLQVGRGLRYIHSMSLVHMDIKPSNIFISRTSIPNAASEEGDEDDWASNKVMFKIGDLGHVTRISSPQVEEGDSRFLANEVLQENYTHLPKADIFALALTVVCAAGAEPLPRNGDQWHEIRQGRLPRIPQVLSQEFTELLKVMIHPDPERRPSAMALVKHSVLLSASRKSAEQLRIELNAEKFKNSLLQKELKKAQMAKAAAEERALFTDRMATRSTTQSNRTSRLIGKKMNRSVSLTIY
UniProt Q96SW2, whole entry: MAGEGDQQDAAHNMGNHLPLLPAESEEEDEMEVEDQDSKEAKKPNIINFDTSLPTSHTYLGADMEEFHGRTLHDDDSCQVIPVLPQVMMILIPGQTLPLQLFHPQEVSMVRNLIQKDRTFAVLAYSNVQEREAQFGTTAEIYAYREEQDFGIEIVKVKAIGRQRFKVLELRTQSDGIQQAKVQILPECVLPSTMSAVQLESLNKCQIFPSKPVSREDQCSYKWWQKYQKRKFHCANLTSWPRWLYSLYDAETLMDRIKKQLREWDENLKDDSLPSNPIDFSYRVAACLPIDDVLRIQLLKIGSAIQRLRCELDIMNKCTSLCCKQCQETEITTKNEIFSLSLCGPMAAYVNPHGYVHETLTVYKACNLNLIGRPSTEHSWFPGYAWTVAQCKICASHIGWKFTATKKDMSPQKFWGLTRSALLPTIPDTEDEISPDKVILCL
UniProt Q9UKT9, whole entry: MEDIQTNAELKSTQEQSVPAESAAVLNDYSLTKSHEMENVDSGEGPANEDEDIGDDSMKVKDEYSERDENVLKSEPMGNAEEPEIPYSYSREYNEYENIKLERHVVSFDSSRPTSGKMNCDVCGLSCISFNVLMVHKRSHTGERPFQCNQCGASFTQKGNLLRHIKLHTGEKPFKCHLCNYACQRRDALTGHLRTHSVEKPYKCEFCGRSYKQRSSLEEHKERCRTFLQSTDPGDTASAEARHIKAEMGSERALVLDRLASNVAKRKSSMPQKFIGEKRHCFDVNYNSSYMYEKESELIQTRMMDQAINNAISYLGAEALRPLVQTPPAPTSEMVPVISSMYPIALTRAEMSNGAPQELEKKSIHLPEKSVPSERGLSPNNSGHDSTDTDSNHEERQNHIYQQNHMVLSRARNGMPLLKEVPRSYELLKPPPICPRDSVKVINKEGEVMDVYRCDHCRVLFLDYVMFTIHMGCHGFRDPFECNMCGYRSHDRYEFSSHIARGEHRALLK
UniProt Q9UKS7, whole entry: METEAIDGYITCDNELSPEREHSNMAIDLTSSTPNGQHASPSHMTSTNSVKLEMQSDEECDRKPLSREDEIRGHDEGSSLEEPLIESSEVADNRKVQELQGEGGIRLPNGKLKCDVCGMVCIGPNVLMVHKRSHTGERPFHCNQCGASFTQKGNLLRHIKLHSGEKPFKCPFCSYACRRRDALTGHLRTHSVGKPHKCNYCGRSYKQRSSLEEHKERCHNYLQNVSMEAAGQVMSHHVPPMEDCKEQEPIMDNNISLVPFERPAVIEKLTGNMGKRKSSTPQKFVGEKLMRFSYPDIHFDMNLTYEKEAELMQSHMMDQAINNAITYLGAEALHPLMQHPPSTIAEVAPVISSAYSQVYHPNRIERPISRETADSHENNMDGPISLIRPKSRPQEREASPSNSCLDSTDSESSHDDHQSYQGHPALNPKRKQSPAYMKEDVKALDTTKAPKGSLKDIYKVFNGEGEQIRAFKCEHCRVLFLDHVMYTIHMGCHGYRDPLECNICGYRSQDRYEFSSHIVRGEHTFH
UniProt Q13422, whole entry: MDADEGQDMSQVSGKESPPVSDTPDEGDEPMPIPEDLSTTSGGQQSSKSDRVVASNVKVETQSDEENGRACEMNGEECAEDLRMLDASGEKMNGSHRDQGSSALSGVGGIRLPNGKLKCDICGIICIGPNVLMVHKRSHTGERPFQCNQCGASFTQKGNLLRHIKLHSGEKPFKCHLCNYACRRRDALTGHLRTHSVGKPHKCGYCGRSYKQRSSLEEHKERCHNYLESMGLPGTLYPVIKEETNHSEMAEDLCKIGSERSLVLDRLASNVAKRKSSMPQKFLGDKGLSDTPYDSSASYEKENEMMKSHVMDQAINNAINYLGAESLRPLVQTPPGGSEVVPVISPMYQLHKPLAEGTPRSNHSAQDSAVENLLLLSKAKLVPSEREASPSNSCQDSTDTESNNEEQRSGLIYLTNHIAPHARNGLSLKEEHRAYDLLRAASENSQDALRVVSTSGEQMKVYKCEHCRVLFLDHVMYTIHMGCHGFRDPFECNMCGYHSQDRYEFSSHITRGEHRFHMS
UniProt P15170, whole entry: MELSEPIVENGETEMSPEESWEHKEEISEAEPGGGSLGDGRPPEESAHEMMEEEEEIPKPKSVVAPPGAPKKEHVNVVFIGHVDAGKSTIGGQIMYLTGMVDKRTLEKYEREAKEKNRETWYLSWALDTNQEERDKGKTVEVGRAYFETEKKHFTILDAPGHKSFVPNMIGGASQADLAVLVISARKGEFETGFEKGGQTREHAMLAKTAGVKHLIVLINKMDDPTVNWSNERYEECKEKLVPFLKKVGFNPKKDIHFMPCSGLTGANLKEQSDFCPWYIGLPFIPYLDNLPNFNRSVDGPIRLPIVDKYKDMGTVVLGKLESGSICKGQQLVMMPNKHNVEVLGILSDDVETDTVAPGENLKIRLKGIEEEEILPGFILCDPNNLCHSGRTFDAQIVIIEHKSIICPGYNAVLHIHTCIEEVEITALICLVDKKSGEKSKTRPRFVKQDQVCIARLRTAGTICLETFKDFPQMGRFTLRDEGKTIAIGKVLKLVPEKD
UniProt P48729, whole entry: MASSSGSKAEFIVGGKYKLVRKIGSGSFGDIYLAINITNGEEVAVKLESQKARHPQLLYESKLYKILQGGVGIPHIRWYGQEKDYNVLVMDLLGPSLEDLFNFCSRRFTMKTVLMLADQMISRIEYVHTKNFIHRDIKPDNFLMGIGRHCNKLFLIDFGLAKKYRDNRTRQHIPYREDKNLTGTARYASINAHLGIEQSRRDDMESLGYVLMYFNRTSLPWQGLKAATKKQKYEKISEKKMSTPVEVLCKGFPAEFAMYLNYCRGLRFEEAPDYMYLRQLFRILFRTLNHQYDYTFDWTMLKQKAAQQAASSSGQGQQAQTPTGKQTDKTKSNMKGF
UniProt Q16531, whole entry partner: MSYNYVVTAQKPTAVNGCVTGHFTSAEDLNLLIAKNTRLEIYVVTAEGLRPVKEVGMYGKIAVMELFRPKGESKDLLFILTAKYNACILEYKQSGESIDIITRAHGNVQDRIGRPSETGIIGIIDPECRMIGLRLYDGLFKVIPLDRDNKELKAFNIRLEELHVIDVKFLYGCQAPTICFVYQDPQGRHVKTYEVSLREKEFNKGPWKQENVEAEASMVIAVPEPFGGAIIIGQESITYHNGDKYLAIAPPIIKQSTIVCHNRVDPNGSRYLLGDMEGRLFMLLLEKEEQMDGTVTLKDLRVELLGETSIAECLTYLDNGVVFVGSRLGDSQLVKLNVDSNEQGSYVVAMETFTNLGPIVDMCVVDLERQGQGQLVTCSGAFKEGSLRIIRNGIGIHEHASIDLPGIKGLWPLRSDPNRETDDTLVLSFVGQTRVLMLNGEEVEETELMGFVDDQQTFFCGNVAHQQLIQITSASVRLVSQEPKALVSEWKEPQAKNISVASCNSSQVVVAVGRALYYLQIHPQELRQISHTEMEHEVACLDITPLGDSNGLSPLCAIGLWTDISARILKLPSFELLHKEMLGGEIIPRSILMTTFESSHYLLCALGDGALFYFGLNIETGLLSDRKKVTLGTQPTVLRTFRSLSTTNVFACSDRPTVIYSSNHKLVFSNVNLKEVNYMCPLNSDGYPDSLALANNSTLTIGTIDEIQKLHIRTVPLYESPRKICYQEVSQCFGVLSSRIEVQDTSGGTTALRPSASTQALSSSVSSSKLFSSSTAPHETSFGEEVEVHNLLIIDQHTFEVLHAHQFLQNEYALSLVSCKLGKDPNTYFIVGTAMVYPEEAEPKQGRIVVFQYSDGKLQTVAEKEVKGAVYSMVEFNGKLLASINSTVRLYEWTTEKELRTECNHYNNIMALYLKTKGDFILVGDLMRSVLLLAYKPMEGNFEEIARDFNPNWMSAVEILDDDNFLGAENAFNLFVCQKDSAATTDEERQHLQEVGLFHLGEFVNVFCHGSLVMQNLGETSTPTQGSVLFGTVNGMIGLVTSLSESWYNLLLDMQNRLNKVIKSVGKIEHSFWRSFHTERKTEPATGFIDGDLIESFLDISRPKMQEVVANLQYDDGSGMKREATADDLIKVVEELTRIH

Key:
WEE1 = WEE1 (Homo sapiens, UniProt P30291+Q96SW2); test: Western blot assay of substrate protein degradation in hPBMCs; settings: 24 hours treatment, compounds at 50 nM and 500 nM (concentration behind the class not stated)
IKZF3 = IKZF3 (Homo sapiens, UniProt Q96SW2+Q9UKT9); test: as above; settings: 24 hours treatment, compounds at 50 nM and 500 nM (concentration behind the class not stated)
IKZF2 = IKZF2 (Homo sapiens, UniProt Q96SW2+Q9UKS7); test: as above; settings: 24 hours treatment, compounds at 50 nM and 500 nM (concentration behind the class not stated)
IKZF1 = IKZF1 (Homo sapiens, UniProt Q13422+Q96SW2); test: as above; settings: 24 hours treatment, compounds at 50 nM and 500 nM (concentration behind the class not stated)
GSPT1 = GSPT1 (Homo sapiens, UniProt P15170+Q96SW2); test: as above; settings: 24 hours treatment, compounds at 50 nM and 500 nM (concentration behind the class not stated)
CK1α = CK1α (Homo sapiens, UniProt P48729+Q96SW2); test: as above; settings: 24 hours treatment, compounds at 50 nM and 500 nM (concentration behind the class not stated)
TNF-α = test: Inflammatory cytokine release from PBMCs induced by PHA (flow cytometry CBA); settings: PHA 1 µg/mL, 24 h
IL-1α = test: as above; settings: PHA 1 µg/mL, 24 h
IL-2 = test: as above; settings: PBMCs, PHA 1 µg/mL, 24 h
IL-10 = test: as above; settings: PBMCs, PHA 1 µg/mL, 24 h
GM-CSF = test: Inflammatory cytokine release from PBMCs induced by PMA + Ionomycin (flow cytometry CBA); settings: 24 h
IL-5 = test: as above; settings: 24 h
CRBN = CRBN (Homo sapiens, UniProt Q96SW2); test: CRBN binding affinity by HTRF (CEREBLON BINDING kit); settings: CRBN binding, HTRF; for Inhibition Rate at 0.5 µM (%): compound at 0.5 µM; for Inhibition Rate at 2 µM (%): compound at 2 µM

Compound	substrate protein remaining % (WEE1) (WEE1)	substrate protein remaining % (IKZF3) (IKZF3)	substrate protein remaining % (IKZF2) (IKZF2)	substrate protein remaining % (IKZF 1) (IKZF1)	substrate protein remaining % (GSPT1) (GSPT1)	substrate protein remaining % (CK1a) (CK1α)	Inhibition Rate (%) TNF-α (TNF-α; 0.1 µM)	Inhibition Rate (%) TNF-α (TNF-α; 1 µM)	Inhibition Rate (%) IL-1α (IL-1α; 0.1 µM)	Inhibition Rate (%) IL-1α (IL-1α; 1 µM)	Inhibition Rate (%) IL-2 (IL-2; 0.1 µM)	Inhibition Rate (%) IL-2 (IL-2; 1 µM)	Inhibition Rate (%) IL-10 (IL-10; 0.1 µM)	Inhibition Rate (%) IL-10 (IL-10; 1 µM)	Inhibition Rate (%) GM-CSF (GM-CSF; 0.1 µM)	Inhibition Rate (%) GM-CSF (GM-CSF; 1 µM)	Inhibition Rate (%) IL-5 (IL-5; 0.1 µM)	Inhibition Rate (%) IL-5 (IL-5; 1 µM)	Inhibition Rate at 0.5 µM (%) (CRBN)	Inhibition Rate at 2 µM (%) (CRBN)
O=C1CCC(N2C(=O)c3cccc(CN4CCC(N5CCN(C(c6ccccc6)c6ccccc6)CC5)CC4)c3C2=O)C(=O)N1 (stereo not drawn)	B (80%< substrate protein remaining %≤ 100%)	A (0% ≤ substrate protein remaining % ≤ 80%)	B (80%< substrate protein remaining %≤ 100%)	B (80%< substrate protein remaining %≤ 100%)	B (80%< substrate protein remaining %≤ 100%)	B (80%< substrate protein remaining %≤ 100%)	IV8 (30% < IV8 ≤ 40%)	IV1 1	IV4 (-50% ≤ IV4 < 0%)	IV1 1	IV11 (60% < IV11 ≤ 70%)	IV1 2	IV6 (10% < IV6 ≤ 20%)	IV1 0	–	–	–	–	–	–
O=C1CCC(N2C(=O)c3ccc(CN4CCC(N5CCN(C(c6ccccc6)c6ccccc6)CC5)CC4)cc3C2=O)C(=O)N1 (stereo not drawn)	B (80%< substrate protein remaining %≤ 100%)	A (0% ≤ substrate protein remaining % ≤ 80%)	B (80%< substrate protein remaining %≤ 100%)	B (80%< substrate protein remaining %≤ 100%)	B (80%< substrate protein remaining %≤ 100%)	B (80%< substrate protein remaining %≤ 100%)	IV11 (60% < IV11 ≤ 70%)	IV8 (30% < IV8 ≤ 40%)	IV11 (60% < IV11 ≤ 70%)	IV5 (0% < IV5 ≤ 10%)	IV11 (60% < IV11 ≤ 70%)	IV9 (40% < IV9 ≤ 50%)	IV9 (40% < IV9 ≤ 50%)	IV7 (20% < IV7 ≤ 30%)	IV9 (40% < IV9 ≤ 50%)	IV8 (30% < IV8 ≤ 40%)	IV10 (50% < IV 10 ≤ 60%)	IV8 (30% < IV8 ≤ 40%)	–	–
O=C1CCC(N2Cc3c(ccc(CN4CCC(N5CCN(C(c6ccccc6)c6ccccn6)CC5)C(F)(F)C4)c3F)C2=O)C(=O)N1 (stereo not drawn)	B (80%< substrate protein remaining %≤ 100%)	A (0% ≤ substrate protein remaining % ≤ 80%)	B (80%< substrate protein remaining %≤ 100%)	B (80%< substrate protein remaining %≤ 100%)	A (0% ≤ substrate protein remaining % ≤ 80%)	B (80%< substrate protein remaining %≤ 100%)	IV11 (60% < IV11 ≤ 70%)	IV1 2	IV11 (60% < IV11 ≤ 70%)	IV1 3	–	–	IV9 (40% < IV9 ≤ 50%)	IV1 0	–	–	IV8 (30% < IV8 ≤ 40%)	IV1 0	a6 (60% < a6 ≤ 70%)	a7 (70% < a7 ≤80%)
O=C1CCC(N2C(=O)c3cccc(CN4CCC(N5CCN(C(c6ccccc6)c6ccccc6)CC5)C(F)(F)C4)c3C2=O)C(=O)N1 (stereo not drawn)	B (80%< substrate protein remaining %≤ 100%)	B (80%< substrate protein remaining %≤ 100%)	A (0% ≤ substrate protein remaining % ≤ 80%)	B (80%< substrate protein remaining %≤ 100%)	B (80%< substrate protein remaining %≤ 100%)	B (80%< substrate protein remaining %≤ 100%)	IV10 (50% < IV 10 ≤ 60%)	IV1 0	IV10 (50% < IV 10 ≤ 60%)	IV1 1	IV10 (50% < IV 10 ≤ 60%)	IV9 (40% < IV9 ≤ 50%)	–	–	IV10 (50% < IV 10 ≤ 60%)	IV9 (40% < IV9 ≤ 50%)	–	–	–	–
O=C1CCC(N2Cc3cc(CCN4CCC(N5CCN(C(c6ccccc6)c6ccccn6)CC5)C(F)(F)C4)ccc3C2=O)C(=O)N1 (stereo not drawn)	B (80%< substrate protein remaining %≤ 100%)	B (80%< substrate protein remaining %≤ 100%)	B (80%< substrate protein remaining %≤ 100%)	B (80%< substrate protein remaining %≤ 100%)	A (0% ≤ substrate protein remaining % ≤ 80%)	A (0% ≤ substrate protein remaining % ≤ 80%)	IV8 (30% < IV8 ≤ 40%)	–	IV6 (10% < IV6 ≤ 20%)	–	IV9 (40% < IV9 ≤ 50%)	–	IV6 (10% < IV6 ≤ 20%)	IV9 (40% < IV9 ≤ 50%)	IV9 (40% < IV9 ≤ 50%)	IV9 (40% < IV9 ≤ 50%)	IV10 (50% < IV 10 ≤ 60%)	IV9 (40% < IV9 ≤ 50%)	a7 (70% < a7 ≤80%)	a8 (80% < a8 ≤100%)
O=C1CCC(N2Cc3cc(CCN4CCC(N5CCN(C(c6ccccc6)c6ccccc6)CC5)CC4)ccc3C2=O)C(=O)N1 (stereo not drawn)	B (80%< substrate protein remaining %≤ 100%)	A (0% ≤ substrate protein remaining % ≤ 80%)	A (0% ≤ substrate protein remaining % ≤ 80%)	A (0% ≤ substrate protein remaining % ≤ 80%)	B (80%< substrate protein remaining %≤ 100%)	B (80%< substrate protein remaining %≤ 100%)	IV10 (50% < IV 10 ≤ 60%)	IV1 1	IV11 (60% < IV11 ≤ 70%)	IV1 1	–	–	IV8 (30% < IV8 ≤ 40%)	IV9 (40% < IV9 ≤ 50%)	–	–	–	–	a6 (60% < a6 ≤ 70%)	a8 (80% < a8 ≤100%)
